# Measured affinities in a library of Ab-14 heavy chain variants

Antigen: PDVDLGDISGINAS, a 14-residue peptide of the SARS-CoV-2 spike HR2 region.

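Phage display of a naive human antibody library on the peptide gave the parent. Designed CDR sequences, proposed from the first random library and measured here. Group labels follow the data file (Ctrl: baseline library sampled from a position-specific scoring matrix, with some repeated check sequences; Rand: our label for a block that the file lists under HC and that is probably the random mutants of the ten best first-round binders; En: ensemble of fine-tuned language models; GP: Gaussian process model; GPLM: also part of the Gaussian process libraries; HC: hill climbing; Gen: genetic algorithm; Gibbs: Gibbs sampling; a sequence that several methods proposed may carry one label only). The assay is AlphaSeq: two haploid yeast populations carry antibody and antigen on their surface. After mating in shaken culture at 30 °C for 16 h, diploids were selected and their barcode pairs sequenced. Scores were corrected for input abundance and mapped to Kd with protein pairs of known affinity run in the same pool. Mating was done six times.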

Parent scFv Ab-14: VH joined to VL by the linker GGGGSGGGGSGGGGS. Changes lie in the heavy chain CDRs alone.
VH: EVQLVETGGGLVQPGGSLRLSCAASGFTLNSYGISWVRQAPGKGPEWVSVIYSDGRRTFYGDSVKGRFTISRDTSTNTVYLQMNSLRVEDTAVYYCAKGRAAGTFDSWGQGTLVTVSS
VL: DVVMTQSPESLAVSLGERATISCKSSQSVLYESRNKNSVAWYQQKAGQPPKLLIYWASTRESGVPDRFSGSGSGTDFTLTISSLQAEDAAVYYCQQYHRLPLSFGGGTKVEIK

Variants are written as CDR1, CDR2 and CDR3 of the heavy chain (limits as in the source). Parent: GFTLNSYGIS, VIYSDGRRTFYGDSVK, GRAAGTFDS. Numbers give log10(Kd / nM), so 0 is 1 nM and 3 is 1 µM. Smaller is tighter. Averages over replicates are reported, and they cover detected replicates only. Where no diploid with the target was found in that replicate, the entry reads "nd": below detection, most likely a poor binder, though not proof of it. Order: sorted from the lowest average up, undetected variants last. The authors' rule: three or more of the six replicates give a measured affinity, fewer mean a poor binder. The parent sequence was in this pool as ten entries: three were never detected, three once, and four in most replicates, with averages from 0.34 to 2.37. The range of this assay differs from that of the first round, and the authors advise against merging the two. Three control strains display no target. For all heavy chain designs, 1% of the pairings with them gave a signal, with a median of 2.08 and one signal in twenty below 0.84, so weak values seen in few replicates may be background.

| CDR-H1 | CDR-H2 | CDR-H3 | group | replicates, log10 nM | log10 Kd (nM), mean |
|---|---|---|---|---|---|
| GFDLNEYGIS | VIYADGMRTSYADSVK | GENAGTFDQ | En_Gen | -0.27 -0.72 -0.94 -1.60 -1.16 -1.05 | -0.96 |
| GFDLNEYGIS | VIYADGRRTFYADSVK | GEQAGTFDF | En_HC | -0.39 -1.03 -0.58 -1.12 -1.03 -0.83 | -0.83 |
| GFDLNEYGIS | VIYADGRRTAYTDSVK | GHNAGTFDV | En_HC | -0.72 -0.47 -0.52 -0.12 -0.41 -0.49 | -0.45 |
| GFNLDEYGIS | VIYADGRRTAYQDSVK | GEVAGTFDV | En_HC | -0.34 -0.46 0.05 -0.86 -0.50 -0.23 | -0.39 |
| GFDLNEYGIS | VIYADGVRTAYADNVK | GNQAGTFDV | En_Gen | -0.02 -0.49 -0.49 -0.69 -0.58 -0.05 | -0.39 |
| GFDLDEYGIS | VIYADGMRTFYADSVK | GSNAGTFDM | En_HC | -0.14 -0.23 -0.23 -0.34 -0.19 0.02 | -0.18 |
| GFDLNEYGIS | VIYADGRRTAYSDSVK | GEVGGTFDS | En_HC | -0.56 0.51 -0.17 0.07 -0.64 -0.11 | -0.15 |
| GFDLDEYGIS | VIYADGMRTAYADSVK | GGNAGTFDV | En_Gen | -0.08 -0.25 -0.25 -0.19 0.09 -0.14 | -0.14 |
| GFSLNSYGIS | VIYSDGRRTFYTDSVK | GIAAGTFDS | Ctrl | 0.27 0.43 0.16 nd -0.49 nd | 0.09 |
| HFSLNSYGIS | VIYSDGRRTFYADSVK | GNEAGTFDS | GPLM_Gibbs | 0.13 0.14 0.05 0.00 -0.07 0.73 | 0.16 |
| GFTLESYGIS | VIYSDGRRTFYSDSVK | GKAAGTFDS | GPLM_Gen | 0.34 0.22 0.51 0.19 0.18 0.34 | 0.30 |
| GFTLNEYGIS | VIYSDGRRTFYGDSVK | GKIAGTFDQ | GP_HC | 0.44 0.42 0.38 0.25 0.17 0.61 | 0.38 |
| GFELNSYGIS | VIYSDGRRTFYGDSVK | GRTAGTFDV | GPLM_Gibbs | 0.41 0.75 0.15 0.41 0.22 1.42 | 0.56 |
| GFNLNSYGIS | VIYSDGRRTFYGDNVK | GRQAGTFDS | GP_Gen | 0.11 0.17 0.19 1.88 1.56 0.18 | 0.68 |
| GFDIQDYGIS | VIYADGSRTAYVNSAK | GLWGATLDV | En_Gibbs | 1.02 0.91 0.77 0.27 0.34 1.03 | 0.72 |
| GFSLNNYGIS | VIYSDGRRTAYGDSVK | GRAAGTFDS | GP_Gen | 0.58 1.04 0.60 0.83 0.55 1.59 | 0.86 |
| KFDLNMYGIS | VIYSDGRRTFYGDSVK | GRTAGTFDS | GP_Gibbs | 1.05 0.75 1.38 0.81 0.75 0.49 | 0.87 |
| GFSLNSYGIS | VIYSDGRRTFYMDSVK | GQAAGTFDS | GPLM_Gen | 1.21 1.88 2.18 0.85 nd 1.69 | 1.56 |
| GFSLNEYGIS | VIYSDGRRTFYCDSVK | GPAAGTFDR | GP_HC | nd 0.88 2.49 1.22 2.77 1.58 | 1.79 |
| GDKLEAYGIS | VIYADGQRAAYVDKVK | GQHGGMFDQ | En_Gibbs | nd nd nd nd 2.46 nd | 2.46 |
| GFTLNSYGIS | VIYSDGRRTFYSDDVK | GQLAGTFDS | GP_HC | nd nd nd nd nd nd | nd |
| GENLEEYGIS | VIYADGFRTHYAEKVK | GQQAGFFIK | En_Gibbs | nd nd nd nd nd nd | nd |
| GFSLNEYGIS | VIYSDGRRTFYCDSVK | GRAAVTFDK | GP_HC | nd nd nd nd nd nd | nd |
| GQNLEEYGIS | VIYADGKRNAYSNNVK | GTGGAVLVD | En_Gibbs | nd nd nd nd nd nd | nd |
| GFTLDSYKIS | VIVSDGRRTFYGDSVK | GRAAGTALS | Rand | nd nd nd nd nd nd | nd |
| GFDLNTYGIS | VIYSDGRRTWYGDSVK | GQAAGTFDS | GP_Gibbs | nd nd nd nd nd nd | nd |
| GFTLNEAIIS | VIYWDKRQTFYGEIVK | RRAAVTFDQ | Rand | nd nd nd nd nd nd | nd |
| GFDLDEQGIS | VIYADGQRTAYADQVK | GMIGDGFRT | En_Gibbs | nd nd nd nd nd nd | nd |
| GDSLEEYGIS | VIYADGKRTAYKNKAK | GKVAGYFDV | En_Gibbs | nd nd nd nd nd nd | nd |
| GFTLDEYGIS | VIYADGMRTQYIDQVK | GDLVNTNMT | En_Gibbs | nd nd nd nd nd nd | nd |

Values reported by Li et al. 2023, doi:10.1038/s41467-023-39022-2 (FLAb copy).